Several values for one entry are separate records, joined by “and”; a condition that tells them apart may be missing. Identical values can stand only once.
How the values were obtained:
Type in all cases: in vivo
[1] = Pharmacokinetics of pulmonary and SC hFSH variant and SC uFSH in cynomolgus monkeys; conditions: for Serum concentration of immunoreactive rFSH variant / FSH: subcutaneous 2 μg/kg; for AUC0–72hr / AUC0–∞ / CMax / Half-Life / TMax: subcutaneous dose 2 μg/kg
[2] = system: Hypophysectomized immature female rats; experiment: Steelman/Pohley rat ovarian weight gain assay (ovarian and uterine weight)
[3] = Pharmacokinetics of uFSH following pulmonary and subcutaneous administration in cynomolgus monkeys; conditions: for Percent Bioavailability: PUL 18.4 ± 1.3 μg/kg (mid dose) relative to SC, from AUC0-∞, inhaled dose
[4] = 0.1 μg/day SC for 4 days, hypophysectomized immature female rats
[5] = PUL 3.8 ± 1.7 μg/kg (low dose), individual animals
[6] = PUL 3.8 ± 1.7 μg/kg (low dose), mean
[7] = PUL 18.4 ± 1.3 μg/kg (mid dose), individual animals
[8] = PUL 18.4 ± 1.3 μg/kg (mid dose), mean

Substance: uFSH: FSH derived from human urine (Vitro Diagnostics, Inc.); mixture of hFSH and hFSH analogs
- Serum concentration of immunoreactive rFSH variant / FSH ([1]; 0 h, individual animals): BQL
- Serum concentration of immunoreactive rFSH variant / FSH ([1]; 0 h, mean): 0 ng/mL
- Serum concentration of immunoreactive rFSH variant / FSH ([1]; 1 h, individual animals): 0.77 ng/mL and 0.67 ng/mL and 0.73 ng/mL and 2.93 ng/mL and 1.23 ng/mL
- Serum concentration of immunoreactive rFSH variant / FSH ([1]; 1 h, mean): 1.27 ng/mL
- Serum concentration of immunoreactive rFSH variant / FSH ([1]; 3 h, individual animals): 5.05 ng/mL and 4.38 ng/mL and 3.57 ng/mL and 6.71 ng/mL and 3.55 ng/mL
- Serum concentration of immunoreactive rFSH variant / FSH ([1]; 3 h, mean): 4.65 ng/mL
- Serum concentration of immunoreactive rFSH variant / FSH ([1]; 6 h, individual animals): 6.31 ng/mL and 4.52 ng/mL and 4.76 ng/mL and 6.53 ng/mL and 3.60 ng/mL
- Serum concentration of immunoreactive rFSH variant / FSH ([1]; 6 h, mean): 5.14 ng/mL
- Serum concentration of immunoreactive rFSH variant / FSH ([1]; 9 h, individual animals): 6.30 ng/mL and 4.28 ng/mL and 4.14 ng/mL and 4.85 ng/mL and 3.55 ng/mL
- Serum concentration of immunoreactive rFSH variant / FSH ([1]; 9 h, mean): 4.62 ng/mL
- Serum concentration of immunoreactive rFSH variant / FSH ([1]; 12 h, mean): 3.76 ng/mL
- Serum concentration of immunoreactive rFSH variant / FSH ([1]; 24 h, mean): 2.84 ng/mL
- Serum concentration of immunoreactive rFSH variant / FSH ([1]; 48 h, mean): 1.32 ng/mL
- Serum concentration of immunoreactive rFSH variant / FSH ([1]; 72 h, individual animals): BQL (2×) and 0.86 ng/mL and 0.61 ng/mL and 0.70 ng/mL
- Serum concentration of immunoreactive rFSH variant / FSH ([1]; 72 h, mean): 0.43 ng/mL
- AUC0–72hr ([1]; Mean, N=5): 159.1 ng·h/mL
- AUC0–∞ ([1]; Mean, N=5): 185.7 ng·h/mL
- CMax ([1]; Mean, N=5): 5.18 ng/mL
- Half-Life ([1]; Mean, N=5): 23.22 h
- TMax ([1]; Mean, N=5): 5.40 h
- CMax ([1]; individual monkeys): 6.31 ng/mL and 4.52 ng/mL and 4.76 ng/mL and 6.71 ng/mL and 3.60 ng/mL
- Half-Life ([1]; individual monkeys): 18.66 h and 18.90 h and 27.79 h and 20.06 h and 43.51 h
- TMax ([1]; individual monkeys): 6 hr (4×) and 3 hr
- AUC0–72hr ([1]; individual monkeys (Subject ID 8717, 8720, 8791, 8794, 8795), serum, IRMA): 159.6 ng·h/mL and 146.7 ng·h/mL and 168.4 ng·h/mL and 168.1 ng·h/mL and 152.6 ng·h/mL
- AUC0–∞ ([1]; individual monkeys, serum, IRMA): 169.3 ng·h/mL and 161.6 ng·h/mL and 204.3 ng·h/mL and 178.4 ng·h/mL and 215.1 ng·h/mL
- Ov wt (ovarian weight) [2, 4]: 31.5 mg
- Ut wt (uterine weight) [2, 4]: 33.0 mg
- Ov wt (ovarian weight) ([2]; 0.3 μg/day SC for 4 days): 35.0 mg
- Ut wt (uterine weight) ([2]; 0.3 μg/day SC for 4 days): 62.0 mg
- Ov wt (ovarian weight) ([2]; 1 μg/day SC for 4 days): 49.2 mg
- Ut wt (uterine weight) ([2]; 1 μg/day SC for 4 days): 78.8 mg
- Ov wt (ovarian weight) ([2]; 3 μg/day SC for 4 days): 41.2 mg
- Ut wt (uterine weight) ([2]; 3 μg/day SC for 4 days): 82.7 mg
- AUC0–t [3, 5]: 0 mIU*h/mL and 132.9 mIU*h/mL and 363.2 mIU*h/mL and 237.6 mIU*h/mL and 129.5 mIU*h/mL
- CMax [3, 5]: 0 mIU/mL and 4.6 mIU/mL and 8.5 mIU/mL and 5.6 mIU/mL and 4.7 mIU/mL
- TMax [3, 5]: 0 h and 12 h (2×) and 24 h (2×)
- AUC0–t [3, 6]: 172.6 mIU*h/mL and 173 mIU*h/mL
- CMax [3, 6]: 4.7 mIU/mL
- TMax [3, 6]: 14.4 h
- Serum concentration of immunoreactive FSH ([3]; PUL 3.8 ± 1.7 μg/kg (low dose, powder 2010), 0 h (predose), individual animals): BQL
- Serum concentration of immunoreactive FSH ([3]; PUL 3.8 ± 1.7 μg/kg (low dose, powder 2010), 0 h (predose), mean): 0 mIU/mL
- Serum concentration of immunoreactive FSH ([3]; PUL 3.8 ± 1.7 μg/kg, 0.08 h, individual animals): BQL
- Serum concentration of immunoreactive FSH ([3]; PUL 3.8 ± 1.7 μg/kg, 0.08 h, mean): 0 mIU/mL
- Serum concentration of immunoreactive FSH ([3]; PUL 3.8 ± 1.7 μg/kg, 0.25 h, individual animals): BQL
- Serum concentration of immunoreactive FSH ([3]; PUL 3.8 ± 1.7 μg/kg, 0.25 h, mean): 0 mIU/mL
- Serum concentration of immunoreactive FSH ([3]; PUL 3.8 ± 1.7 μg/kg, 0.5 h, individual animals): BQL
- Serum concentration of immunoreactive FSH ([3]; PUL 3.8 ± 1.7 μg/kg, 0.5 h, mean): 0 mIU/mL
- Serum concentration of immunoreactive FSH ([3]; PUL 3.8 ± 1.7 μg/kg, 1 h, individual animals): BQL
- Serum concentration of immunoreactive FSH ([3]; PUL 3.8 ± 1.7 μg/kg, 1 h, mean): 0 mIU/mL
- Serum concentration of immunoreactive FSH ([3]; PUL 3.8 ± 1.7 μg/kg, 3 h, individual animals): BQL
- Serum concentration of immunoreactive FSH ([3]; PUL 3.8 ± 1.7 μg/kg, 3 h, mean): 0 mIU/mL
- Serum concentration of immunoreactive FSH ([3]; PUL 3.8 ± 1.7 μg/kg, 6 h, individual animals): BQL and 3.1 mIU/mL and 4.5 mIU/mL and 3.7 mIU/mL (2×)
- Serum concentration of immunoreactive FSH ([3]; PUL 3.8 ± 1.7 μg/kg, 6 h, mean): 3.8 mIU/mL
- Serum concentration of immunoreactive FSH ([3]; PUL 3.8 ± 1.7 μg/kg, 9 h, individual animals): BQL and 4.5 mIU/mL and 6.1 mIU/mL and 4.9 mIU/mL and 4.3 mIU/mL
- Serum concentration of immunoreactive FSH ([3]; PUL 3.8 ± 1.7 μg/kg, 9 h, mean): 5.0 mIU/mL
- Serum concentration of immunoreactive FSH ([3]; PUL 3.8 ± 1.7 μg/kg, 12 h, individual animals): BQL and 4.6 mIU/mL and 8.1 mIU/mL and 5.2 mIU/mL and 4.7 mIU/mL
- Serum concentration of immunoreactive FSH ([3]; PUL 3.8 ± 1.7 μg/kg, 12 h, mean): 5.7 mIU/mL
- Serum concentration of immunoreactive FSH ([3]; PUL 3.8 ± 1.7 μg/kg, 24 h, individual animals): BQL and 4.2 mIU/mL and 8.5 mIU/mL and 5.6 mIU/mL and 3.9 mIU/mL
- Serum concentration of immunoreactive FSH ([3]; PUL 3.8 ± 1.7 μg/kg, 24 h, mean): 5.6 mIU/mL
- Serum concentration of immunoreactive FSH ([3]; PUL 3.8 ± 1.7 μg/kg, 48 h, individual animals): BQL (3×) and 4.9 mIU/mL and 3.0 mIU/mL
- Serum concentration of immunoreactive FSH ([3]; PUL 3.8 ± 1.7 μg/kg, 48 h, mean): 4.0 mIU/mL
- Serum concentration of immunoreactive FSH ([3]; PUL 3.8 ± 1.7 μg/kg, 72 h, individual animals): BQL
- Serum concentration of immunoreactive FSH ([3]; PUL 3.8 ± 1.7 μg/kg, 72 h, mean): 0 mIU/mL
- Percent Bioavailability ([3]; individual animals): 5.5% and 4.7% and 4.0% and 6.0% and 7.7%
- Percent Bioavailability ([3]; mean): 5.6%
- AUC0–t [3, 7]: 941.3 mIU*h/mL and 1001.8 mIU*h/mL and 755.2 mIU*h/mL and 847.8 mIU*h/mL and 1436.9 mIU*h/mL
- AUC0–∞ [3, 7]: 1053.5 mIU*h/mL and 1157.9 mIU*h/mL and 843.4 mIU*h/mL and 1079.3 mIU*h/mL and 1546.8 mIU*h/mL
- CMax [3, 7]: 29.1 mIU/mL and 25.2 mIU/mL and 24.4 mIU/mL and 20.4 mIU/mL and 40.1 mIU/mL
- Half-Life [3, 7]: 20.9 h and 23.5 h and 20.5 h and 30.4 h and 17.83 h
- TMax [3, 7]: 9.0 h (2×) and 12.0 h (3×)
- AUC0–t [3, 8]: 996.6 mIU*h/mL and 997 mIU*h/mL
- AUC0–∞ [3, 8]: 1136.0 mIU*h/mL and 1136 mIU*h/mL
- CMax [3, 8]: 27.8 mIU/mL
- Half-Life [3, 8]: 21.9 h
- TMax [3, 8]: 10.8 h
- Serum concentration of immunoreactive FSH ([3]; PUL 18.4 ± 1.3 μg/kg (mid dose, powder 2010), 0 h (predose), individual animals): BQL
- Serum concentration of immunoreactive FSH ([3]; PUL 18.4 ± 1.3 μg/kg (mid dose, powder 2010), 0 h (predose), mean): 0 mIU/mL
- Serum concentration of immunoreactive FSH ([3]; PUL 18.4 ± 1.3 μg/kg, 0.08 h, individual animals): BQL
- Serum concentration of immunoreactive FSH ([3]; PUL 18.4 ± 1.3 μg/kg, 0.08 h, mean): 0 mIU/mL
- Serum concentration of immunoreactive FSH ([3]; PUL 18.4 ± 1.3 μg/kg, 0.25 h, individual animals): BQL
- Serum concentration of immunoreactive FSH ([3]; PUL 18.4 ± 1.3 μg/kg, 0.25 h, mean): 0 mIU/mL
- Serum concentration of immunoreactive FSH ([3]; PUL 18.4 ± 1.3 μg/kg, 0.5 h, individual animals): BQL

From US7112341B1, “Pulmonary administration of dry powder formulations for treating infertility” (Nektar Therapeutics, priority 1999, dated 2006)
